In the library only some 1.2% were active in any assay of this set; here they are far more common.
UUG fidelity = modulators of start codon recognition fidelity in yeast; AID 602363; activity score, % at 18.7 µM; S. cerevisiae UUG-firefly luciferase reporter, luminescence/redox ratio; 0.13% of 350,000 active;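 active = replicate mean at a twofold rise or more, about +100% in these data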;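 note: firefly luciferase made from a UUG start codon reports start codon fidelity; reporter light over untreated wells divided by growth signal over untreated wells; some hits fall short of that in this replicate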
Glyco luc inh = increase of ERlucT glycosylation luciferase signal, primary screen, N-linked glycosylation inhibitor project, D54 ERlucT cells, luminescence, set 2; D54 ERlucT glycosylation luciferase reporter, 24 h; percent of 100 nM tunicamycin response; reporter increase, % at 12.5 µM; 360,000 compounds, 0.23% hits; AID 588692, 2011;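 active = mean luciferase reporter signal, scaled so untreated is 0 and the glycosylation-blocking control 100, at or above a set limit in every replicate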;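 note: luciferase carries N-glycosylation sites so blocking glycosylation raises the light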
Cneo AK release = Cryptococcus neoformans cell lysis inducers, primary screen, AK release luminescence, single concentration; 360,000 compounds, 0.2% hits; C. neoformans lysis, adenylate kinase release luminescence, 4 h; normalised: neutral wells 0, clomiphene wells 100; AID 651654, 2012; lysis activity, % at 15 µM;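 active = mean lysis activity across replicates of at least 80%, whatever share of replicates individually reach that level; inactive = mean lysis activity below 80%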
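read-out = cell lysis signal | test system = log-phase Cryptococcus neoformans yeast cells | input = cells at 5 × 10^6 per mL | medium = fresh YPD growth medium | signal = luminescent adenylate kinase detection reagent | timing = 4 h at 37 °C static, read 1 h later | dosing = single dose | controls = Clomiphene as positive lysis control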
Statin myotox sup = suppressors of statin myotoxicity in C2C12 myotubes, primary screen, cell-based, single point, plate reader | C2C12 myotubes + simvastatin, ATP luminescence, 48 h; scaled: DMSO 0, geranylgeraniol control 100 | rescue of ATP level, % at 7.49 µM | 330,000 compounds, 0.78% hits;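 active = mean ATP rescue above about 67%, or every replicate alone reaching that limit, limit read from the data, passing the limit was not always enough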;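 note: myotubes were challenged with 10 µM simvastatin during compound exposure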
miR-122 sensor = miR-122 Renilla sensor signal increase in Huh7, primary screen, miR-122 inhibitor project, cell-based, single point, plate reader; 340,000 compounds, 0.3% hits; Huh7 miR-122 Renilla luciferase sensor, 48 h; neutral wells = 0, positive control = 100; AID 602342, 2012; activation (reporter increase), % at 12.5 µM;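 active = mean replicate activation score at least 90 and every replicate individually at or above 90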;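 note: higher luciferase means less miR-122 activity so hits act as miR-122 inhibitors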
Numbers stand for hits; – = inactive; · = no result; [ ] = remark or other dose.

SMILES	UUG fidelity	Glyco luc inh	Cneo AK release	Statin myotox sup	miR-122 sensor
COc1ccc(C(=O)NN(C)c2nc(-c3ccccc3)nnc2C(F)(F)F)cc1	–	–	–	74.1	–
Cc1cccc(C(=O)NN(C)c2nc(-c3ccccc3)nnc2C(F)(F)F)c1	–	–	–	–	–
Cc1cc(C)nc(Sc2nc(Cl)nc(N(c3ccccc3)c3ccccc3)n2)n1	–	–	–	101.6	–
Cc1cc(C)nc(SC(C(=O)O)c2ccccc2)n1 (stereo not drawn)	·	–	·	·	·
C[C@@H]1CN([C@@H](C)CO)C(=O)c2cccc(NS(=O)(=O)c3ccc(F)cc3)c2O[C@@H]1CN(C)Cc1ccc(C(F)(F)F)cc1	–	·	–	–	–
Cc1ccc(S(=O)(=O)Nc2cccc3c2O[C@@H](CN(C)Cc2ccc(C(F)(F)F)cc2)[C@H](C)CN([C@@H](C)CO)C3=O)cc1	–	·	–	77.6	–
Cc1ccc(S(=O)(=O)Nc2cccc3c2O[C@@H](CN(C)Cc2ccc(C(F)(F)F)cc2)[C@H](C)CN([C@H](C)CO)C3=O)cc1	–	·	–	101.5	–
CO[C@H]1CN(C)C(=O)c2cc(NC(=O)C3CCOCC3)ccc2OC[C@H](C)N(Cc2nccs2)C[C@H]1C	–	·	–	–	·
COc1ccc(C(=O)OCCOc2cccc(Cl)c2)cc1S(=O)(=O)N1CCOCC1	–	–	–	–	–
COc1ccc(Nc2nc(N3CCCC3)nc3ccccc23)c(OC)c1	–	99.3	–	–	–
Cc1ccc(S(=O)(=O)N(C)C[C@H]2Oc3ccc(NS(=O)(=O)c4c(C)noc4C)cc3CC(=O)N([C@@H](C)CO)C[C@@H]2C)cc1	–	·	–	–	–
CC(c1ccco1)N(C(=O)c1ccc(C(F)(F)F)cc1)c1ccccn1 (stereo not drawn)	–	–	–	–	–
Cc1ccc(C(=O)N(c2ccccn2)C(C)c2ccco2)cc1C (stereo not drawn)	–	–	–	123.0	–
Cc1ccc(S(=O)(=O)N2CC[C@@H]3[C@H]2c2cc(-c4ccccc4F)ccc2N[C@@H]3CO)cc1	–	·	104.3	–	–
Cc1ccccc1S(=O)(=O)N1CC[C@@H]2[C@@H](CO)Nc3ccc(-c4ccc(F)cc4)cc3[C@@H]21	–	·	–	–	157.5[16.7 µM]
Cc1ccc(S(=O)(=O)N2CC[C@@H]3[C@@H](CO)Nc4ccc(-c5ccccc5F)cc4[C@@H]32)cc1	–	·	–	–	153.6[16.7 µM]
CC(C)C#Cc1ccc2c(c1)O[C@@H](CN(C)C(=O)C1CC1)[C@@H](C)CN([C@H](C)CO)S2(=O)=O	–	·	–	–	–
CCOc1cccc(C(=O)Nc2cccc(-c3nnc(-c4ccc(C)cc4)o3)c2)c1	–	98.5	–	–	–
Cc1cc(C(=O)NCc2ccccc2Cl)n(-c2ccccc2)n1	–	–	–	–	–
COc1cccc(C(NC(C)=O)c2nc(-c3ccc(F)cc3OC)cs2)c1 (stereo not drawn)	–	49.8	–	–	–
COc1cc(F)ccc1-c1csc(C(NC(C)=O)c2ccc(F)c(F)c2)n1 (stereo not drawn)	–	42.2	–	–	–
CC(=O)NC(c1ccccc1)c1nc(-c2cccc(F)c2)cs1 (stereo not drawn)	–	–	–	–	–
COc1ccccc1-c1csc(C(NC(C)=O)c2ccccc2)n1 (stereo not drawn)	–	41.7	–	–	–
COc1ccc(-c2csc(C(NC(C)=O)c3ccc(F)c(F)c3)n2)cn1 (stereo not drawn)	–	–	–	–	–
COc1cc(F)ccc1-c1csc(C(NC(C)=O)c2ccccc2)n1 (stereo not drawn)	–	50.2	–	–	–
SMILES	UUG fidelity	Glyco luc inh	Cneo AK release	Statin myotox sup	miR-122 sensor
CCS(=O)(=O)c1ccc2oc(SCC(=O)N3CCCCC3)nc2c1	·	–	·	·	·
COCC#Cc1ccc2c(c1)O[C@H](CN(C)C(C)=O)[C@@H](C)CN([C@@H](C)CO)S2(=O)=O	–	·	–	·	–
COc1ccc(NC(=O)Nc2ccc3c(c2)C(=O)N([C@H](C)CO)C[C@@H](C)[C@H](CN(C)C(=O)Nc2c(C)noc2C)O3)cc1	–	·	–	–	–
O=C(NCc1ccco1)c1ccc2c(=O)n(CC3CCCO3)c(=S)[nH]c2c1 (stereo not drawn)	–	–	–	91.1	–
COC(CN(C(=O)CCl)C(C(=O)NC1CCCCC1)c1ccc(Cl)cc1)OC (stereo not drawn)	–	–	–	71.0	–
CC(C)NC(=O)N(C)C[C@@H]1Oc2c(cccc2N(C)C)C(=O)N([C@@H](C)CO)C[C@@H]1C	–	·	–	–	–
CC1CN(C(=O)CCCN2C(=O)c3ccccc3C2=O)CC(C)O1 (stereo not drawn)	–	–	–	–	–
Cc1ccc(Cl)c2c1NC(=O)C2=O	–	–	–	–	–
C[C@H]1CCCCO[C@H](CN(C)CC2CCCCC2)[C@@H](C)CN([C@@H](C)CO)C(=O)c2cc(NC(=O)C3CCCCC3)ccc2O1	–	·	–	·	–
O=C(O)C1CCCCC1C(=O)Nc1ccccn1 (stereo not drawn)	–	–	–	105.0	–
O=C(Nc1ccccn1)NC1CCCCC1	·	–	·	·	–
CC(C)NC(=O)N(C)C[C@H]1Oc2c(NC(=O)Nc3ccc(F)cc3)cccc2C(=O)N([C@H](C)CO)C[C@@H]1C	–	·	–	–	–
C=CCSc1nnc(CSc2nc3sc4c(c3c(=O)[nH]2)CCCC4)n1-c1ccccc1	–	–	–	120.4	–
Cc1nc2ncccn2c1-c1csc(Nc2ccccc2)n1	·	–	·	·	·
Cc1nc2ncccn2c1-c1csc(Nc2ccc(N(C)C)cc2)n1	·	51.3	·	·	·
CC(=O)c1sc(NC(=O)C=C(C)C)nc1C	–	–	–	–	–
CC(=O)c1sc(NC(=O)C2(F)C(F)(F)C(F)(F)C(F)(F)C(F)(F)C2(F)F)nc1C	–	–	136.5	–	–
CC(C)(C)C(=O)CSc1nnc(Nc2ccccc2)s1	–	–	–	–	–
CC(=O)Oc1ccc2c(C)cc(=O)oc2c1	·	–	·	·	–
COC(=O)C(CC(C)C)Oc1ccc2c(C)cc(=O)oc2c1 (stereo not drawn)	–	–	–	·	152.2
CCOc1ccc2nc(SCC#N)c(C#N)cc2c1	–	–	–	80.5	–
CCSc1nc2ccc(OC)cc2cc1C#N	–	–	–	–	–
COc1ccc(CC(=O)NC(CC(=O)O)c2cccc([N+](=O)[O-])c2)cc1 (stereo not drawn)	–	–	–	121.9	–
CNC[C@H]1OCCCC[C@@H](C)Oc2ccc(NC(=O)NC(C)C)cc2C(=O)N([C@@H](C)CO)C[C@@H]1C	·	·	–	·	–

Source: PubChem BioAssay
